## Antibody variant affinities, Ab-95 light chain, assay 2

Binding partner: SARS-CoV-2 spike HR2 peptide, sequence PDVDLGDISGINAS.

Parent: Ab-95, a human scFv built as VH, the linker GGGGSGGGGSGGGGS, VL. Only the CDRs of the light chain vary.
VH: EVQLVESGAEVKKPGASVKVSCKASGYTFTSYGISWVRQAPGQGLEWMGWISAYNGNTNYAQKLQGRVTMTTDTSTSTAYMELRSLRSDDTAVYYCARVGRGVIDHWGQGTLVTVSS
VL: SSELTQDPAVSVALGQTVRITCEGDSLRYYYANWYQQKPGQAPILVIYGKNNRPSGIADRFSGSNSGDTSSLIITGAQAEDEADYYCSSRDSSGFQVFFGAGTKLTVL

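Variants in AAYL52 differ from the parent at up to three CDR positions; double and triple changes were sampled at random. The scFvs were displayed on barcoded MATa yeast, the peptide on MATalpha yeast. The frequency of each diploid, read from paired DNA barcodes, reflects how well the two displayed proteins bind. Each replicate has its own calibration line, from reference interactions of the BCL2 family. There are three technical replicates.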

Substitutions are numbered in sequence along the VL above, starting at 1 (not Kabat). Affinities are written as log10 Kd with Kd in nM; a lower number is a better binder. The mean shown is taken over the replicates in which the pair was detected. An entry "nd" has no value in the source: the pair was not observed among the diploids in that replicate. This suggests poor binding but is not conclusive. In this assay the parent's reference entry averaged 2.31; its copy inside this library read 2.25. As a blank, each scFv also met three strains without target: over library AAYL52, 28% of these pairings were detected, typically at 3.91 and seldom below 2.90. Also given: how often the same scFv was detected with the empty control strains, with their mean in brackets.

| changes | log10 Kd, replicates | mean, log10 nM | control signals |
|---|---|---|---|
| N33A/V97N | nd nd nd | nd | 0/9 |
| S26F/P54V/V97F | nd nd nd | nd | 0/9 |
| Y29N/Q96H | 1.72 1.42 1.10 | 1.41 | 2/9 (3.88) |
| P54M/V97R | 2.99 2.22 2.70 | 2.64 | 4/9 (3.65) |
| Y29N/G94P/F95Y | 4.38 nd nd | 4.38 | 2/9 (3.82) |
| D25P/S26H/F98G | 3.26 3.17 2.97 | 3.13 | 2/9 (3.49) |
| L27C/G49W/S92G | nd nd nd | nd | 2/9 (3.46) |
| G24V/R53E/P54V | 4.60 nd nd | 4.60 | 1/9 (3.88) |
| L27N/F95D/F98E | 2.88 3.56 nd | 3.22 | 2/9 (3.15) |
| D25T/Y31Q/N52M | 1.02 1.13 0.37 | 0.84 | 5/9 (4.48) |
| K50H/S89D/D91R | nd nd 3.25 | 3.25 | 2/9 (3.96) |
| Y30I/R90K | 3.80 4.31 nd | 4.05 | 1/9 (4.64) |
| R90T/G94L/F95I | nd nd nd | nd | 0/9 |
| N33M/S93G/V97S | nd 3.76 3.73 | 3.74 | 3/9 (4.19) |
| Y31M/K50Q/Q96A | 1.89 2.29 2.46 | 2.21 | 2/9 (3.80) |
| G24V/F95V/Q96W | 1.99 2.60 2.22 | 2.27 | 0/9 |
| D25S/Y30A/S88A | 2.05 1.48 1.35 | 1.63 | 0/9 |
| R28F/S89G/Q96V | 4.24 3.81 4.37 | 4.14 | 2/9 (4.47) |
| K50N/N51P/S92V | 3.48 nd 4.30 | 3.89 | 5/9 (3.91) |
| L27W/R28I/R53A | nd 4.95 nd | 4.95 | 2/9 (2.91) |
| Y31P/S88P/F95V | 3.43 3.24 3.00 | 3.23 | 2/9 (4.27) |
| E23Y/R28I/G49E | nd 3.41 3.61 | 3.51 | 3/9 (4.45) |
| G24S/Y29W/N33A | 5.11 4.49 3.71 | 4.43 | 4/9 (4.25) |
| R28T/S89C/S93Y | 5.36 nd 3.35 | 4.36 | 1/9 (3.34) |
| S26D/Y30W/V97P | nd nd nd | nd | 0/9 |
| D25E/N33T/F98L | 3.53 nd nd | 3.53 | 2/9 (3.99) |
| Y29Q/R90C/D91C | 3.84 nd 3.48 | 3.66 | 8/9 (4.31) |
| R53D/S89V/R90V | 5.30 6.26 3.31 | 4.96 | 1/9 (2.83) |
| Y29Q/N51I/P54Q | 2.81 2.40 2.66 | 2.62 | 1/9 (3.32) |
| L27H/Y29W/S89A | 3.77 4.02 nd | 3.89 | 5/9 (3.79) |
| S93R | 3.08 3.60 nd | 3.34 | 1/9 (4.46) |
| Y31D/S92E/G94A | 1.27 1.29 0.72 | 1.09 | 1/9 (3.35) |
| K50I/R90Y | nd 5.49 4.46 | 4.98 | 2/9 (4.34) |

Repeated from above, the 4 best binders with a signal in all replicates:

| changes | log10 Kd, replicates | mean, log10 nM | control signals |
|---|---|---|---|
| D25T/Y31Q/N52M | 1.02 1.13 0.37 | 0.84 | 5/9 (4.48) |
| Y31D/S92E/G94A | 1.27 1.29 0.72 | 1.09 | 1/9 (3.35) |
| Y29N/Q96H | 1.72 1.42 1.10 | 1.41 | 2/9 (3.88) |
| D25S/Y30A/S88A | 2.05 1.48 1.35 | 1.63 | 0/9 |

Reference: Engelhart et al. 2022, doi:10.1038/s41597-022-01779-4. File: FLAb, binding data.